Measured values from patent US9051320B1, “Methods for the treatment of metabolic disorders by a selective small molecule autotaxin inhibitor” (PharmAkea, Inc., priority 2014, dated 2015).

Molecular target: T1, human autotaxin (ATX) (Homo sapiens, UniProt Q13822)
T1 construct: ATX activity is assayed in concentrated conditioned media from Hep3B human hepatocellular carcinoma cells; endogenous in cells; host or cells: Hep3B human hepatocellular carcinoma cells (20-fold concentrated conditioned medium)
Assay: Human autotaxin assay (choline release from LPC, Hep3B conditioned media)
Format: biochemical
Details: LPC 14:0 100 uM
Procedure: ATX activity is assayed in concentrated conditioned media from Hep3B human hepatocellular carcinoma cells by measuring the amount of choline released from the substrate, lysophosphatidylcholine (LPC) as it is cleaved to LPA. Conditioned media is collected from confluent Hep3B cells and concentrated 20-fold using Centriprep-30 filter devices (Millipore).

IC50: < 500 nM
Structure (SMILES): Cc1c(Sc2cccc(C(=O)O)c2F)c2ccc(Cl)c(F)c2n1CC(=O)N1CCC(O)(C(F)(F)F)C1 (single isomer, unassigned) [Compound E]
